Laboratory results as given in PMC12802961 (Journal of Antimicrobial Chemotherapy, 2025).

Tested on: P. aeruginosa 106
Experiment: Neutropenic murine thigh infection model
Format: in vivo, Pseudomonas aeruginosa
Details: cefepime q2h 64 mg/kg, potMIC 4 mg/L (with 4 mg/L taniborbactam)
Description: […]. […] […]. All dosing regimens were performed in at least two animals per dosing regimen.
At t = 0 h, 2 h after infection, two mice were humanely euthanized to determine the initial number of cfu/thigh just before treatment. All other animals were euthanized at t = 24 h unless the welfare of the animals indicated earlier termination, following animal welfare regulations. Thighs were taken and moved to a pre-cooled 10 mL plastic tube (Transport Tube, Omnilabo, NL) containing 2 mL PBS (NaCl 8.00 g/L, Na2HPO4 * 2H2O 1.44 g/L, KH2PO4 0.26 g/L, pH 7.2–7.4). Subsequently, thighs were homogenized using the Ultra-Turrax homogenizer (IKA Labortechnik, Germany). For each thigh 10-fold dilution series were prepared and 3 × 10 µL per dilution were plated (Chromagar, bioMérieux, NL). The following day, colonies were counted and the number of cfu/thigh was calculated. The drug effect was then determined as the difference between the log10cfu/thigh values at t = 24 h and t = 0 h (mean value of two mice) expressed as Δlog10cfu, i.e. positive result for growth, zero for static effect and negative for reduction of inoculum (killing).
. […] Free drug concentrations were used in all calculations. […]

Structure (SMILES): CO/N=C(\C(=O)N[C@@H]1C(=O)N2C(C(=O)[O-])=C(C[N+]3(C)CCCC3)CS[C@H]12)c1csc(N)n1 [cefepime, Cefepime]
- Cefepime %fT > potMIC: 57.70%
